Amino acid sequences for entries named in this document (tags omitted).
UniProt P28334, whole entry: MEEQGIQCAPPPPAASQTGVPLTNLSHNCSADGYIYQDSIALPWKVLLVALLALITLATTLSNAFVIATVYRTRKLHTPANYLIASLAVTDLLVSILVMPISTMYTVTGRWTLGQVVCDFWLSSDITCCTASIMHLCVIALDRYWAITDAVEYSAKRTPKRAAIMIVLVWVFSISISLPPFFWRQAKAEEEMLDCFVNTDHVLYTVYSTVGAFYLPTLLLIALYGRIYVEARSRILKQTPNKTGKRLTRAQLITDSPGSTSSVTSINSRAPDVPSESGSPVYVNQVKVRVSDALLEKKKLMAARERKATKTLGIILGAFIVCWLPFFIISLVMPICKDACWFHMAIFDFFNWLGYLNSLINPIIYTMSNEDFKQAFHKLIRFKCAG

According to patent US6713443B1, “Compounds which modify serotoninergic transmission, diagnostic and therapeutic applications” (Institut Pasteur, priority 1993, dated 2004):

Legend:
BALB/C mice = assay: Raised cross-shaped labyrinth; format: in vivo
Excerpt: This experimental test is used to determine the degree of anxiety and consists in a raised labyrinth with two branches, one protected by walls and the other unprotected.
The animal is assumed to be anxious when it avoids the entrance and reduces the time spent in the open branches.
Male BALB/C mice weighing 20 to 24 g were used.
The raised cross-shaped labyrinth was made of plexiglass with open branches and two closed branches of the same size (12.5×5 cm) with walls 15 cm high, these branches extending from a central platform of 5×5 cm, placed 40 cm above the ground.
LSAL dissolved in 5 ml of saline solution at 0.9% in a volume of 5 μl was injected via the icv route into the mice. Three hours later, the animal was placed on the central platform of the labyrinth. Each entry into a branch as well as the time spent in each branch was recorded. The duration of the test was 5 minutes. The labyrinth was cleaned after each test.
LSAL was tested under conditions of low light intensity (BENJAMIN D. et al., Life Sci. 47, 195-203 (1990)).
The results were expressed as mean plus or minus the standard deviation of the percentage of entries into the open branches (% entries into the open branches), percentage of time spent in the open branches (% time in the open branch) and total number of entries into the branches. Difference with the control: *p<0.05, **p<0.01 (student's test).

5-HT1 receptors = assay: Inhibition of [3H]5-HT binding to the 5-HT1 receptors; design: species or system rat
Procedure: Using, as discrimination criterion, the capacity of a potential factor to interact with the recognition of 5-HT by the 5-HT1B/1D receptor of membranes of rat brain synaptosomes, as described in FR-2,657,784, an active compound was purified from rat, horse and bovine brain extracts. The methodology of the purification involved separations by gel permeation, normal or reversed phases or alternatively ion exchanges.
(§1) The synthetic peptide LSAL was tested for its capacity to “mimic” the effects of the purified fraction obtained from brain extracts.

5-HT1B/D receptors = assay: Relative activity at 1 nM, [3H]5-HT binding; conditions: 1 nM peptide or amino acid, 30 nM [3H]5-HT
Procedure: The binding experiments were performed as described above. […] Each value corresponds to the mean ± the standard deviation of three independent tests performed in quintuplicate.

α1 adrenergic receptor = assay: [3H]prazosin binding, rat brain membranes; conditions: 1 nM peptide; [3H]prazosin (2 nM)
muscarinic receptors = format: binding, rat; conditions: 1 nM peptide; [3H]quinuclidinyl benzilate (3 nM)
5-HT1 NON A = assay: [3H]5-HT binding to 5-HT1 non A sites (with 8-OH-DPAT), rat brain membranes
Procedure: as §1
Rat brain cerebral membranes (200 μg) were incubated for 30 minutes at 25° C. with various specific radioligands (see table) in the presence or in the absence of 1 nM peptide.
The various binding conditions used for the serotoninergic receptors are those described above (PALACIOS J. M. et al., Methods in Neurosciences 12, 238-262 (1993)). For the other bindings, the incubation medium consisted of 50 mM Tris-HCl pH 7.4 containing 120 mM NaCl and 50 mM KCl ([^3H]spiroperidol, [^3H]quinuclidinyl benzilate, [^3H]naloxone, or 4 mM CaCl2 and 4 mM MgCl2 ([^3H]flunitrazepam), or 120 mM NaCl, 5 mM KCl, 2.5 mM CaCl2 and 1 mM MgSO4 ([^3H]prazosin), or 90 mM NaCl ([^3H]dihydroalprenolol).
Each point corresponds to a mean plus or minus the standard deviation of five independent determinations.

mouse 5-HT1B receptor = target: T1, mouse 5-HT1B receptor (Mus musculus, UniProt P28334); assay: Adenylyl cyclase activity, NIH 3T3 cell membranes expressing the mouse 5-HT1B receptor; format: biochemical
T1 construct: expressed in transfected cells; host or cells: NIH 3T3 cells
Procedure: NIH 3T3 cell membranes expressing the mouse 5-HT1B receptor gene were suspended and homogenized with a Dounce homogenizer in a 50 mM Tris-HCl buffer, pH 7.4, containing 3 mM MgCl2 and 0.2 mM EGTA (TME buffer).
The adenylyl cyclase activities were measured on aliquot fractions of 50 μl (30-50 μg of protein) of homogenates in a final volume of 100 μl, containing 0.1 mM [α-^32P]ATP (1 μCi), 1 mM MgCl2, 50 μM GTP, 10 μM forskolin, 100 mM NaCl, 10 mM theophylline, 20 mM phosphocreatinine, 0.2 mg/ml creatine kinase, 1 mM [^3H]cAMP (=15,000 cpm/test) and the substances to be studied.
The membranes were incubated for 20 minutes at 30° C. The reaction was stopped by addition of 200 μl of 5 mM ATP, 5 mM cAMP and 1% sodium dodecyl sulphate dissolved in 50 mM Tris-HCl buffer.
The [^32P]cAMP formed was isolated by the two-column chromatography method described by Salomon et. al. (Adv. Cyclic Nucleotide Res., 10, 35-55 (1979), modified by De Vivo and Maayani (J. Pharmacol. Exp. Therap. 238, 248-253 (1986)).
The 5-HT1B/D receptors are known to be predominantly coupled to the Gi protein, inhibiting the activity of adenylyl cyclase. The interaction of LSAL was examined on the enzymatic activity correlated with the 5-HT1B receptor stimulation expressed in NIH 3T3 cells.

5-HT1D receptors = assay: [3H]5-HT binding to 5-HT1D receptors, human brain
[1] = LSAL 0.5 μg, 1 hour after i.v. injection
[2] = LSAL 2 μg, 1 hour after i.v. injection
[3] = LSAL 2 μg, 3 hours after i.v. injection
[4] = LSAL 10 μg, 1 hour after i.v. injection
[5] = LSAL 10 μg, 3 hours after i.v. injection
[6] = LSAL 50 μg, 3 hours after i.v. injection

CC(C)C[C@H](NC(=O)[C@H](C)NC(=O)[C@H](CO)NC(=O)[C@@H](N)CC(C)C)C(=O)O [LSAL, Leu-Ser-Ala-Leu]
% Total entries into the branches (BALB/C mice; [1]): 8 ± 2%
% entries into the open branches (BALB/C mice; [1]): 63 ± 11%
% time spent in the open branches (BALB/C mice; [1]): 64 ± 8%
% Total entries into the branches (BALB/C mice; [2]): 8 ± 2%
% entries into the open branches (BALB/C mice; [2]): 69 ± 10%
% time spent in the open branches (BALB/C mice; [2]): 73 ± 8%
% Total entries into the branches (BALB/C mice; [3]): 15 ± 2** %
% entries into the open branches (BALB/C mice; [3]): 60 ± 8%
% time spent in the open branches (BALB/C mice; [3]): 62 ± 9%
% Total entries into the branches (BALB/C mice; [4]): 9 ± 2* %
% entries into the open branches (BALB/C mice; [4]): 80 ± 6%
% time spent in the open branches (BALB/C mice; [4]): 69 ± 6%
% Total entries into the branches (BALB/C mice; [5]): 14 ± 1** %
% entries into the open branches (BALB/C mice; [5]): 80 ± 5** %
% time spent in the open branches (BALB/C mice; [5]): 85 ± 4* %
% Total entries into the branches (BALB/C mice; [6]): 8 ± 1%
% entries into the open branches (BALB/C mice; [6]): 56 ± 7%
% time spent in the open branches (BALB/C mice; [6]): 55 ± 7* %
entries into the unprotected open branches of the labyrinth (BALB/C mice; dose of 10 μg): increases the number of entries
overall effect on anxiety in the labyrinth (BALB/C mice; under the experimental conditions used): anxiogenic effect
IC50 (5-HT1 receptors): ~0.01 nM
RELATIVE POTENCY, Receptors 5-HT1B/D ([3H]5-HT) (5-HT1B/D receptors): 100 ± 5 percentage of the LSAL effect
INHIBITORY EFFECT AS % OF THE CONTROL (α1 adrenergic receptor): 5 ± 3 % of the control
INHIBITORY EFFECT AS % OF THE CONTROL (muscarinic receptors): 0 ± 2 % of the control
INHIBITORY EFFECT AS % OF THE CONTROL (5-HT1 NON A; 1 nM peptide, [3H]5-HT (30 nM) + 0.1 μM 8-OH-DPAT): 75 ± 3 % of the control
IC50, binding to 5-HT1nonA (5-HT1 NON A; compared with the IC50 on 5-HT1 receptors): identical IC50
maximum inhibition of binding to 5-HT1nonA (5-HT1 NON A; mainly 5-HT1B/1D sites): 75%
effect on the basal production of cAMP (mouse 5-HT1B receptor; NIH 3T3 cells expressing 5-HT1B): did not have any effect
effect on the inhibitory effect of 5-HT on adenylyl cyclase activity stimulated by forskolin (mouse 5-HT1B receptor; concentration dependent, bell-shaped dose-response curve, FIG. 2): significantly increased
IC50 (5-HT1D receptors): 0.01 nM

Marks after values point to notes of the source that are not given here.
